{"source": "paper PMC4426000", "origin": "cited, not measured here", "target": "eNOS (UniProt P29474)", "data": [{"substance": "calmodulin (from UniProt P0DP23)", "values": [{"measurement": "Kd", "value": "< 1", "unit": "nM"}]}]}
